Results on 3 substances are retold here after US20050009748A1, “Compositions for delivering peptide YY and PYY agonists” (Emisphere Technologies, Inc., priority 2003, published 2005).

Where “and” joins values, the source holds several entries; their conditions need not be identical. Equal entries are not always repeated. Where two headings read alike, the source gives them in different places.

Data set [1] can be described thus: PYY[3-36] solid oral delivery in Cynomolgus monkeys (serum PYY radioimmunoassay). The format is in vivo. The procedure:
Capsules were prepared as follows. […] Pre-weighed size 2 capsules were packed with the blend using a clean metal spatula. The final capsules were reweighed and determined to contain >98% of the transferred blend.
Tablets were prepared as follows.
Each solid dosage form was delivered directly into the stomach using a gavage tube. The capsule or tablet was ejected by air flush.

Data set [2] can be described thus: Liquid oral delivery of PYY[3-36] in rats (oral gavage, serum PYY[3-36] radioimmunoassay). Particulars: for Mean Peak Serum [PYY(3-36)] (pg/ml) ± SD: oral gavage solution, rats, 1 ml/kg. On the procedure:
SNAC monosodium salt, solid was dissolved in water. The pH of this solution was close to pH 7.5, so no pH adjustments were done. […] The final pH of these solutions was 7.5.
The pH was then lowered to 7.7 by adding HCl (5N). […] The final pH of these solutions varied between 7.5 and 7.6.
Each delivery agent compound (as the free acid or monosodium salts) was dissolved in water. The pH was adjusted to approximately 7.5 by adding HCl (5N) and NaOH (5N) as needed. […] The final pH of these solutions was approximately 7.5.
The typical dosing and sampling protocols were as follows. Male Sprague-Dawley rats weighing between 240-320 g were fasted up to a maximum 24 hours before the experiments and administered ketamine (44 mg/kg) and thorazine (1.5 mg/kg) by intramuscular injection before the test article administration. Afterwards, the anesthetized animals were administered the test article by oral gavage. A dosing group of five animals was administered one of the dosing solutions. For oral gavage (PO), an 11 cm Rusch 8 French catheter was adapted to a 1 ml syringe with a pipette tip. The syringe was filled with dosing solution by drawing the solution through the catheter, which was then wiped dry. The catheter was placed down the esophagus leaving 1 cm of tubing past the incisors. The dosing solution was administered by pressing the syringe plunger.
(§1) Blood samples were collected serially from the tail artery, or by cardiac puncture, typically at time=0, 15, 30, 45, 60 and 90 minutes. […] Results from the animals in each group were averaged for each time point.

A short description of data set [3]: Mini-tablets of PYY[3-36] and SNAD to feed restricted rats (serum PYY[3-36] radioimmunoassay). The format is in vivo, Male Sprague Dawley rats. Particulars: fasted rats, PYY[3-36] or SNAD administered alone.
Data set [4] can be described thus: Solid oral delivery of PYY[3-36] in feed restricted rats (serum PYY radioimmunoassay). The format is in vivo, Male Sprague Dawley rats. Particulars: 1 tablet per animal. On the procedure: (§2) An oral dosing tube was used.
(§3) Blood samples were collected serially from the tail artery, by cardiac puncture, or as in this case by retro-orbitally, typically at time=0, 15, 30, 60 and 90 minutes.

Data set [5] in a line: Dosage forms of disodium salt of SNAD and PYY[3-36] and intraperitoneal dosing of PYY[3-36] in rats (serum PYY radioimmunoassay). In kind it is in vivo, Male Sprague Dawley rats. On the procedure:
Liquid dosage forms were prepared as follows. […] A liquid solution of delivery agent was prepared by dissolving the disodium salt of SNAD in water. The pH of the resulting disodium SNAD solution was about 10. […] Liquid dosage forms having between about 100 and 200 mg/kg disodium SNAD and between about 0.3 and 1 mg/kg PYY[3-36] were prepared according to this procedure. The final pH of the liquid dosage forms was between about 9 and 10.
Solid dosage forms were prepared as follows. About 0.08 mg/tablet (about 0.3 mg/kg) of PYY (about 1 μl) was added and blended with either about 13.5 or about 27 mg/tablet (about 50 or 100 mg/kg) Delivery Agent.
as §2, §3

A short description of data set [6]: Solid oral delivery of PYY[3-36] in non-feed restricted rats. In kind it is in vivo. Particulars: 1 tablet per animal. From the text: Rats were subjected to solid oral dosage forms consisting of PYY [3-36] and a carrier agent as described above in Example 3a, except no food restriction was imposed upon the rats prior to administration of the solid dosage forms.

The conditions of data set [7]: IP, rats, 0.5 ml/kg, no delivery agent. On the procedure: The typical dosing and sampling protocols were as follows. Male Sprague-Dawley rats weighing between 240-320 g were fasted up to a maximum 24 hours before the experiments and administered ketamine (44 mg/kg) and thorazine (1.5 mg/kg) by intramuscular injection before the test article administration. […] A dosing group of five animals was administered one of the dosing solutions.
as §1

Setting [8] is: Delivery Agent 100 mg/kg, PYY[3-36] 0.5 mg/kg.

In the case of “N-(10-[2-hydroxybenzoyl]-amino)decanoic acid [Delivery Agent 2]”, the “Mean serum peak of PYY (pg/ml) ± SD” value stood at 419.68 ± 320.44 pg/mL in data set [1] (1 capsule per animal, Compound 50 mg, PYY(3-36) 1 mg); 432.02 ± 309.47 pg/mL in data set [1] (1 capsule per animal, Compound 100 mg, PYY(3-36) 1 mg); 925.86 ± 794.03 pg/mL in data set [1] (1 tablet per animal, Compound 50 mg/tablet, PYY(3-36) 1 mg/tablet); 536.3 ± 424.7 pg/mL in data set [4] (Delivery Agent 50 mg/kg, PYY[3-36] 0.3 mg/kg, listed as 2); 512.4 ± 484.2 pg/mL in data set [4] (Delivery Agent 100 mg/kg, PYY[3-36] 0.3 mg/kg, listed as 2). The “Mean Peak Serum [PYY(3-36)] (pg/ml) ± SD” value in data set [2] (Delivery Agent 100 mg/kg, PYY[3-36] 0.1 mg/kg) amounted to 44.63 ± 53.53 pg/mL; in data set [2] (setting [8]), 273.69 ± 457.5 pg/mL; in data set [2] (Delivery Agent 200 mg/kg, PYY[3-36] 0.1 mg/kg), 134.37 ± 236.708 pg/mL; in data set [2] (Delivery Agent 200 mg/kg, PYY[3-36] 0.5 mg/kg), 430.29 ± 364.6 pg/mL. Further, the “changes in serum PYY[3-36] when administered alone” value in data set [3] was “No changes in serum PYY[3-36] were detected”.

“N-(10-[2-hydroxybenzoyl]-amino)decanoic acid [Delivery Agent 16]”: the “Mean serum peak of PYY (pg/ml) ± SD” value in data set [5] (oral liquid dose, Disodium SNAD 100 (mg/tablet), PYY(3-36) 0.3 (mg/tablet)) is 1008.2 ± 145.16 pg/mL; in data set [5] (oral liquid dose, Disodium SNAD 150 (mg/tablet), PYY(3-36) 0.5 (mg/tablet)), 2215.6 ± 1543.01 pg/mL; in data set [5] (oral liquid dose, Disodium SNAD 150 (mg/tablet), PYY(3-36) 1 (mg/tablet)), 4697.8 ± 3009.48 pg/mL and 2432.4 ± 1702.55 pg/mL; in data set [5] (oral liquid dose, Disodium SNAD 200 (mg/tablet), PYY(3-36) 0 (delivery agent alone)), 0 pg/mL; in data set [5] (oral liquid dose, Disodium SNAD 200 (mg/tablet), PYY(3-36) 0.3 (mg/tablet)), 805.67 ± 583.78 pg/mL; in data set [5] (oral solid dose, 1 tablet per animal, Disodium SNAD 100 (mg/tablet), PYY(3-36) 0.5 (mg/tablet)), 1518.36 ± 464.98 pg/mL and 3685.8 ± 880.43 pg/mL. The “Mean serum peak of PYY (pg/ml) ± SD” value in data set [6] (Delivery Agent 50 mg/kg, PYY[3-36] 0.3 mg/kg) was 1101 ± 1197 pg/mL; in data set [6] (Delivery Agent 100 mg/kg, PYY[3-36] 0.3 mg/kg), 1011.5 ± 1287 pg/mL; in data set [6] (setting [8]) it was 1735.6 ± 1108 pg/mL; in data set [4] (Delivery Agent 25 mg/kg, PYY[3-36] 0.1 mg/kg), 274.1 ± 118.6 pg/mL; in data set [4] (Delivery Agent 25 mg/kg, PYY[3-36] 0.3 mg/kg), 953.8 ± 660.3 pg/mL; in data set [4] (Delivery Agent 25 mg/kg, PYY[3-36] 0.5 mg/kg) it was 494.6 ± 318.2 pg/mL. Further, the “Mean serum peak of PYY (pg/ml) ± SD” value was 249.3 ± 144.0 pg/mL in data set [4] (Delivery Agent 50 mg/kg, PYY[3-36] 0.1 mg/kg); 617.4 ± 272.1 pg/mL and 988.7 ± 288.2 pg/mL and 847.3 ± 152 pg/mL and 421.08 ± 389.2 pg/mL in data set [4] (Delivery Agent 50 mg/kg, PYY[3-36] 0.3 mg/kg, listed as 16); 715 ± 208.0 pg/mL in data set [4] (Delivery Agent 50 mg/kg, PYY[3-36] 0.5 mg/kg); 739.6 ± 409.6 pg/mL in data set [4] (Delivery Agent 50 mg/kg, PYY[3-36] 1 mg/kg); 754.7 ± 539.8 pg/mL in data set [4] (Delivery Agent 75 mg/kg, PYY[3-36] 0.3 mg/kg); 1294.2 ± 351.4 pg/mL and 1560 ± 883.4 pg/mL and 980.7 ± 49.7 pg/mL and 939.88 ± 166.61 pg/mL in data set [4] (Delivery Agent 100 mg/kg, PYY[3-36] 0.3 mg/kg, listed as 16). The “Mean serum peak of PYY (pg/ml) ± SD” value in data set [4] (setting [8]) came out at 852.2 ± 1119 pg/mL.

Take PYY[3-36]: the “Mean Peak Serum [PYY] (pg/ml) ± SD” value in data set [7] (PYY[3-36] 0.005 mg/kg) stood at 435.19 ± 56.07 pg/mL; in data set [7] (PYY[3-36] 0.05 mg/kg), 521.02 ± 111.54 pg/mL; in data set [7] (PYY[3-36] 0.1 mg/kg), 464.48 ± 77.48 pg/mL. In data set [5] (intraperitoneal injection, Disodium SNAD 0, PYY(3-36) 0.05 (mg/tablet)), the “Mean serum peak of PYY (pg/ml) ± SD” value is 3671 ± 244.7 pg/mL and 6292.8 ± 1365.1 pg/mL. For the same substance, in data set [2] (rats dosed orally with PYY[3-36] alone), the “PYY[3-36] detected in blood” value is “No significant PYY[3-36] was detected”. In addition, the “changes in serum PYY[3-36] when administered alone” value in data set [3] was “No changes in serum PYY[3-36] were detected”.
